# Measurements: patent US20060051395A1 (AFFINERGY, published 2006)
# T1: Bone Morphogenic Protein 2 (BMP-2) (UniProt P12643 283-396)
# T1 construct: Bought from Medtronic; In the phage ELISAs it was biotinylated with NHS-biotin (about one biotin per molecule) and held on streptavidin plates; In the peptide assays it was unlabelled
# T1 sequence (looked up): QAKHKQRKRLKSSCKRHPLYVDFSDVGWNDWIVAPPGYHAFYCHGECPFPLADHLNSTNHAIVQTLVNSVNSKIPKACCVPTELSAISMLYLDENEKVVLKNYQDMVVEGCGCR
# B1: AFF-2011 (peptide)
# peptide: SSDWGVVASAWDAFEALDASR
# modifications: biotin on the epsilon amino group of a lysine residue at the C-terminus
# notes: Synthetic form of the peptide of clone AP02-45; not shown: C-terminal biotinylated lysine; any linker before it is not spelled out for this peptide
# B2: AFF-2007 (peptide)
# peptide: SRGGEAAAGAWVSFSALESSR
# modifications: biotin on the epsilon amino group of a lysine residue at the C-terminus
# notes: Synthetic form of the peptide of clone AP02-50; not shown: C-terminal biotinylated lysine; any linker before it is not spelled out for this peptide
# B3: AFF-2006 (peptide)
# peptide: SRSSDSAFSSFSALEGSVVSR
# modifications: biotin on the epsilon amino group of a lysine residue at the C-terminus
# notes: Synthetic form of the peptide of clone AP02-48; not shown: C-terminal biotinylated lysine; any linker before it is not spelled out for this peptide
# Biological target: T1, Bone Morphogenic Protein 2 (BMP-2)
# Test: estimated affinity from solution-phase binding of biotinylated peptide and BMP-2, capture on streptavidin plate, anti-BMP antibody detection
# Method: To confirm these BMP binding results, the peptides were also tested in an alternate assay format in which the peptide and BMP2 were allowed to bind in solution and then assayed. Briefly, the peptides were synthesized with a biotin group attached to the E amino group of a lysine residue at the C-terminus of the peptide. The biotinylated peptides (0-12 pmoles) were mixed with BMP-2 (0-25 pmoles) in solution and allowed to incubate at 37° C. for 30 minutes in a polypropylene plate. The solutions were transferred to a streptavidin-coated plate and incubated for 1 hour at 37° C. to capture the biotinylated peptides. Plates were washed in TBS-Tween™ 20 and then incubated with an anti-BMP antibody (1:1000 dilution; R&D systems) for 1 hour at RT. After washing, an alkaline phosphatase-labeled secondary antibody was then added to the plate and incubated at RT for 30 minutes. The plates were washed with TBS-Tween™ 20 and the antibody binding was detected using the chromogenic AP substrate pNPP.
row,Binder,Kd [nM]
1,B1,55
2,B2,79
3,B3,21
